In US8501794B2, “Compounds as cannabinoid receptor ligands” (priority 2007, dated 2013) one finds Ki and EC50 data, which are given here for 1 compound.

By UniProt entry, the sequences of proteins in these tests, tags left out. Where a name states a change or a piece, a line headed by the entry shows the natural chain unless it says otherwise.
UniProt P34972, whole entry, looked up: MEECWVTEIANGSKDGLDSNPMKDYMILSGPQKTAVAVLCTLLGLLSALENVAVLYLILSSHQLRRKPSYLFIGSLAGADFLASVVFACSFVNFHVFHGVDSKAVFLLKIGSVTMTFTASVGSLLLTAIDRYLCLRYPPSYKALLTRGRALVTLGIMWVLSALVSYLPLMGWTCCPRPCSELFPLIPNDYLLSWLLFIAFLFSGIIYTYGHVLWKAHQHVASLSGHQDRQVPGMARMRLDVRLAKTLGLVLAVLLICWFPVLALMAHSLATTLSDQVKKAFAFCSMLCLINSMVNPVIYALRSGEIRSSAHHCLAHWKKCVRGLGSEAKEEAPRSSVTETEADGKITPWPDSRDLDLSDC
UniProt Q9QZN9: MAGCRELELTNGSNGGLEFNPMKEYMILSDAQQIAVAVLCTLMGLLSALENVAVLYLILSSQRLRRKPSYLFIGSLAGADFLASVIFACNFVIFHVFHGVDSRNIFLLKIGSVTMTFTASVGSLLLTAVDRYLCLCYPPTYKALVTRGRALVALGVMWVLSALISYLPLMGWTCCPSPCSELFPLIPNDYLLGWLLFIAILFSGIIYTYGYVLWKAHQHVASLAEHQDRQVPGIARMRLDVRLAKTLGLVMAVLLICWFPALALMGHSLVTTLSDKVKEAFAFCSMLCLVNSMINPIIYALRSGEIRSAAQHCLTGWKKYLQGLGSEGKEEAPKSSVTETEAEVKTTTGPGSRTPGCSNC

SMILES strings stand for the structures. pEC50, pKi: −log10 of the molar value.

One assay has as its target human CB2 receptors (Homo sapiens, UniProt P34972). Briefly: human CB2 radioligand binding assay ([3H]CP-55,940 competition). Particulars: read-out: human CB2 (Ki); HEK293 membranes, 0.5 nM [3H]CP-55,940.
Assay [1] concerns the target T1, rat CB2 (Rattus norvegicus, UniProt Q9QZN9). Briefly: rat CB2 radioligand binding assay ([3H]CP-55,940 competition). Particulars: read-out: rat CB2 (Ki); HEK293 membranes, 0.5 nM [3H]CP-55,940.
In assay [2] the target is T1, rat CB2. Briefly: rat CB2 cyclase functional assay (HitHunter cAMP, HEK cells). In kind it is cell-based. Particulars: read-out: rat CB2 cyclase (EC50), forskolin 18 μM.

Consider `COc1ccc(Cl)cc1C(=O)/N=c1\sn(C(C)(C)C)c2c1CC(C(F)(F)F)CC2` (stereo not drawn), for which the negative-log Ki (pKi) (as a rule, the Ki on a negative log10 scale, so that one unit is a factor of ten) is 9.62 at human CB2 receptors and 9.52 on rat CB2 [1]. The pEC50 (usually −log10 of the EC50, conventionally taken in molar units) on rat CB2 [2] is 9.68.
